Laboratory results reported in publication PMC10999543, “Identification of kinase modulators as host-directed therapeutics against intracellular methicillin-resistant Staphylococcus aureus” (Frontiers in Cellular and Infection Microbiology, 2024).

Test system: HeLa cells
Test: Compound screen by flow cytometry: HeLa cell count as surrogate readout of cell viability (z-scoreHeLa); further: test concentration or dose not given here
Format: cell-based, human
Conditions: for cell count rep 1 / cell count rep 2 / cell count rep 3 / z-scoreHeLa mean / z-scoreHeLa rep 1 / z-scoreHeLa rep 2 / z-scoreHeLa rep 3: human

COc1ccccc1C1=C(Nc2ccc(O)c(Cl)c2)C(=O)NC1=O [SB-381904] was tested, and the cell death was “No”, the “cell count rep 1” value was 26704 and the “cell count rep 2” value was 24480. The “cell count rep 3” value was 37581, the z-scoreHeLa mean was -0.46 and the “z-scoreHeLa rep 1” value was 1.00. For the same molecule, the “z-scoreHeLa rep 2” value was -1.92 and the “z-scoreHeLa rep 3” value was -0.47.

Fc1ccc(-c2ncn(C3CCNCC3)c2-c2ccnc(Oc3cccc(F)c3)n2)cc1 [SB-251505] was tested, and the cell death was “No”, the “cell count rep 1” value was 24508 and the “cell count rep 2” value was 35794. The “cell count rep 3” value was 37877, the z-scoreHeLa mean was 0.14 and the “z-scoreHeLa rep 1” value was 0.67. The “z-scoreHeLa rep 2” value was 0.19 and the “z-scoreHeLa rep 3” value was -0.42.

For Fc1ccc(-c2ncn(C3CCNCC3)c2-c2ccnc(Oc3ccc(Cl)cc3)n2)cc1 [SB-278539], the cell death was “No”, the “cell count rep 1” value was 20843 and the “cell count rep 2” value was 37327. The “cell count rep 3” value was 42866, the z-scoreHeLa mean was 0.32 and the “z-scoreHeLa rep 1” value was 0.11. For the same molecule, the “z-scoreHeLa rep 2” value was 0.47 and the “z-scoreHeLa rep 3” value was 0.37.

In the case of Fc1ccc(-c2ncn(C3CCNCC3)c2-c2ccnc(Oc3cccc(C(F)(F)F)c3)n2)cc1 [SB-253226], the cell death was “No”, the “cell count rep 1” value was 19768 and the “cell count rep 2” value was 24303. For the same molecule, the “cell count rep 3” value was 40741, the z-scoreHeLa mean was -0.66 and the “z-scoreHeLa rep 1” value was -0.0536. The “z-scoreHeLa rep 2” value was -1.96 and the “z-scoreHeLa rep 3” value was 0.0339.
